Measured values published in ChEMBL document CHEMBL2029289, “Structure-activity relationship study of a CXC chemokine receptor type 4 antagonist, FC131, using a series of alkene dipeptide isosteres” (J Med Chem, 2012).

Amino acid sequences for entries named in this document (tags omitted).
UniProt P61073, whole entry: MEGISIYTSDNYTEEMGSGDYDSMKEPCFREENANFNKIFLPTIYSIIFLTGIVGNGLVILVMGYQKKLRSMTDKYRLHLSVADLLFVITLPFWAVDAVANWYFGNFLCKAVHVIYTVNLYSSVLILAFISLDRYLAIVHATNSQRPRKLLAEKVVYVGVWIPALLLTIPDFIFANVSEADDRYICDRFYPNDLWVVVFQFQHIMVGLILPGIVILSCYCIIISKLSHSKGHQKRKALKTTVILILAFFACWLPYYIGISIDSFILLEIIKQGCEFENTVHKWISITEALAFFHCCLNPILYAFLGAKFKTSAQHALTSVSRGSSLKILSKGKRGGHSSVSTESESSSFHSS

Target: C-X-C chemokine receptor type 4 (Homo sapiens, UniProt P61073)
Experiment: Displacement of [125I]SDF-1alpha from CXCR4 expressed in HEK293 cell membrane after 1 hr
Type: cell membranes

## N=C(N)NCCC[C@@H]1NC(=O)[C@H](CCCNC(=N)N)NC(=O)[C@@H](Cc2ccc(O)cc2)NC(=O)CNC(=O)[C@H](Cc2ccc3ccccc3c2)NC1=O
  IC50: 84 nM
